Where two headings read alike, the source gives them in different places.
Key:
[1] = molecular target: recombinant human SYK (GST-hSYK fusion protein) (Homo sapiens (Human), UniProt P43405)
rhSYK = rhSYK (Homo sapiens (Human), UniProt P43405)

Structure (SMILES)	IC50 [1]	other results
COc1nc(Nc2cc(C)cc(-c3cnc([C@]4(O)CC[C@@H](C(=O)O)[C@@H](C)C4)s3)c2)ncc1F		IC50 ([1]; tested form: formate): < 100 nM
CCOC(=O)CNC(=O)N1CCCC(O)(c2ncc(-c3cc(C)cc(Nc4nccc(C(F)(F)F)n4)c3)s2)CC1 (stereo not shown)	< 100 nM	
Cc1cc(Nc2nccc(OC(C)C)n2)cc(-c2cnc([C@]3(O)CC[C@@H](C(N)=O)CC3)s2)c1 (relative stereo)	< 100 nM	
Cc1cc(Nc2nccc(C(F)(F)F)n2)cc(-c2cnc(C3(O)CCCN(C(=O)NC(C)C)CC3)s2)c1 (stereo not shown)	< 100 nM	
COc1nc(Nc2cc(C)cc(-c3cnc(C4(O)CCCN(C(=O)OC(C)(C)C)CC4)s3)c2)ncc1Cl (single isomer, unassigned)	1000 to 10000 nM	
C=CCNC(=O)N1CCCC(O)(c2ncc(-c3cc(C)cc(Nc4nccc(C(F)(F)F)n4)c3)s2)CC1 (stereo not shown)		IC50 ([1]; tested form: TFA): < 100 nM
CNC(=O)N1CCCC(O)(c2ncc(-c3cc(C)cc(Nc4nccc(C(F)(F)F)n4)c3)s2)CC1 (single isomer, unassigned)	< 100 nM	
CCOC(=O)CCCNC(=O)N1CCCC(O)(c2ncc(-c3cc(C)cc(Nc4nccc(C(F)(F)F)n4)c3)s2)CC1 (stereo not shown)		IC50 ([1]; tested form: TFA): < 100 nM
CCCNC(=O)N1CCCC(O)(c2ncc(-c3cc(C)cc(Nc4nccc(C(F)(F)F)n4)c3)s2)CC1 (stereo not shown)	< 100 nM	
Cc1cc(Nc2nccc(C(F)(F)F)n2)cc(-c2cnc(C(C)(C)S(=O)(=O)NCC(N)=O)s2)c1	< 100 nM	
CC(=O)NS(=O)(=O)c1ccc(C(C)(O)c2ncc(-c3cc(C)cc(Nc4nccc(C(F)(F)F)n4)c3)s2)cc1 (stereo not shown)		IC50 (rhSYK; tested form: TFA): < 100 nM
Cc1cc(Nc2nccc(C(F)(F)F)n2)cc(-c2cnc(C(O)(Cc3ccc(C(=O)O)cc3)c3ccccc3)s2)c1 (stereo not shown)		IC50 (rhSYK): < 100 nM
COc1nc(Nc2cc(C)cc(-c3cnc([C@@]4(O)CC[C@H](C(=O)O)[C@H](C)C4)s3)c2)ncc1F		IC50 ([1]; tested form: formate): < 100 nM

From patent US8759366B2, “Aminopyrimidines as SYK inhibitors” (Merck Sharp & Dohme Corp., priority 2009, dated 2014)
